Reference: PMC9939731

Legend:
[1] = target: RbBP5–Ash2L–DPY30 subcomplex (human) (UniProt Q15291); assay: AUC; SV-AUC of purified MWRAD2 loaded at 0.25-5 uM, 15 °C, 50,000 rpm, absorbance optics; c(s) in SEDFIT; sw isotherm fit to an A + B = AB heteroassociation model in SEDPHAT; apparent Kd
[2] = target: RbBP5–Ash2L–DPY30 subcomplex (human) (UniProt Q15291); assay: AUC; SV-AUC of purified MWRAD2 loaded at 0.25-5 uM, 37 °C, 50,000 rpm, absorbance optics; c(s) in SEDFIT; sw isotherm fit to an A + B = AB heteroassociation model in SEDPHAT; apparent Kd
[3] = target: RbBP5–Ash2L–DPY30 subcomplex (human) (UniProt Q15291); assay: AUC; SV-AUC of purified MWRAD2 loaded at 0.25-5 uM, 25 °C, 50,000 rpm, absorbance optics; c(s) in SEDFIT and Bayesian c(p)(s) analysis with S values of subcomplexes as prior expectations; sw isotherm fit to an A + B = AB heteroassociation model in SEDPHAT; apparent Kd
[4] = target: RbBP5–Ash2L–DPY30 subcomplex (human) (UniProt Q15291); assay: AUC; SV-AUC of purified MWRAD2 loaded at 0.25-5 uM, 10 °C, 50,000 rpm, absorbance optics; c(s) in SEDFIT; sw isotherm fit to an A + B = AB heteroassociation model in SEDPHAT; apparent Kd
[5] = target: RbBP5–Ash2L–DPY30 subcomplex (human) (UniProt Q15291); assay: AUC; SV-AUC of purified MWRAD2 loaded at 0.25-5 uM, 5 °C, 50,000 rpm, absorbance optics; c(s) in SEDFIT; sw isotherm fit to an A + B = AB heteroassociation model in SEDPHAT; apparent Kd
[6] = target: RbBP5–Ash2L–DPY30 subcomplex (human) (UniProt Q15291); assay: AUC; SV-AUC of purified MWRAD2 loaded at 0.25-5 uM, 30 °C, 50,000 rpm, absorbance optics; c(s) in SEDFIT; sw isotherm fit to an A + B = AB heteroassociation model in SEDPHAT; apparent Kd
[7] = target: RbBP5–Ash2L–DPY30 subcomplex (human) (UniProt Q15291); assay: AUC; SV-AUC of purified MWRAD2 loaded at 0.25-5 uM, 20 °C, 50,000 rpm, absorbance optics; c(s) in SEDFIT; sw isotherm fit to an A + B = AB heteroassociation model in SEDPHAT; apparent Kd

Kd [1]: 20 nM
Kd [2]: 6200 nM
Kd [3]: 62 nM
Kd [4]: 7 nM
Kd [5]: 7 nM
Kd [6]: 290 nM
Kd [7]: 30 nM
Substance: MLL1–WDR5 heterodimer (from UniProt Q03164 3745-3969; P61964 2-334) (complex)
